Experimental data reported in US20260317296A1, “HETEROCYCLIC COMPOUNDS FOR IMAGING AGGREGATED TAU IN TAUOPATHIES” (University of Pittsburgh - Of the Commonwealth System of …, priority 2023, published 2026).

Protein sequences, listed by entry. Tags and fused reporters are not part of them. Residues count along the entry.
UniProt P10636, 1-410 isoform P10636-5: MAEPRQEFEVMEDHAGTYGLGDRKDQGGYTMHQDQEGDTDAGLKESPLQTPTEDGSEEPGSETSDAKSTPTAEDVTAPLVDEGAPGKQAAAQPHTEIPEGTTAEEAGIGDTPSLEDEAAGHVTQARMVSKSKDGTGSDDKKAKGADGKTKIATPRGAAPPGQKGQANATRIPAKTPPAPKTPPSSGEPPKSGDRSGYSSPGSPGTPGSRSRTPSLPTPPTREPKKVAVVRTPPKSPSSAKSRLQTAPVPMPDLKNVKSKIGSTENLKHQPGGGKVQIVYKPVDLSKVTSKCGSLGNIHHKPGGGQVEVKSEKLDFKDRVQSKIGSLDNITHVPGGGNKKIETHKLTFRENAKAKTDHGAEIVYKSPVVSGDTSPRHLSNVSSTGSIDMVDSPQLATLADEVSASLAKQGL
UniProt P10636, 1-441 isoform P10636-8 P301L: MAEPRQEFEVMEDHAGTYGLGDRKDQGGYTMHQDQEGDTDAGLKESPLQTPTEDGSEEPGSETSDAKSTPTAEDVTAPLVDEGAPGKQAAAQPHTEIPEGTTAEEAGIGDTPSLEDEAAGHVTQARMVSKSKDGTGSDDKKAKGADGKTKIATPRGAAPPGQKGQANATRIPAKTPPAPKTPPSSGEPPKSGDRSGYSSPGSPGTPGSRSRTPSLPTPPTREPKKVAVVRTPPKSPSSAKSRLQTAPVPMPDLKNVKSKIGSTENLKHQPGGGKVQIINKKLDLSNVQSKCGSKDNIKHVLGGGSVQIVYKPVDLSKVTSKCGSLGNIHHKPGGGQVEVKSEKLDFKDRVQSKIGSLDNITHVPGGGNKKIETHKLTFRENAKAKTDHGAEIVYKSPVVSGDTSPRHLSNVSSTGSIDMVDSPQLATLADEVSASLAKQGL
UniProt P05067, 672-713 limits assumed: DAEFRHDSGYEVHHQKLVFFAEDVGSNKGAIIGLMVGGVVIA

How the values were obtained:
[1] = target: T1, aggregated 4R-tau in AD tissue (Homo sapiens, UniProt P10636); assay: In vitro competition (Ki) assay, AD brain tissue homogenate; assay type: binding
T1 construct: autopsy-confirmed postmortem AD, PSP, and CBD human brain tissues; tissue UCSF Neurodegenerative Disease Brain Bank; host or cells: post-mortem human AD brain homogenate

[2] = target: T2, aggregated 4R-tau in PSP tissue (Homo sapiens, UniProt P10636); assay: In vitro competition (Ki) assay, PSP brain tissue homogenate; assay type: binding
T2 construct: autopsy-confirmed postmortem AD, PSP, and CBD human brain tissues; tissue UCSF Neurodegenerative Disease Brain Bank; host or cells: post-mortem human PSP brain homogenate

[3] = target: T3, aggregated 4R-tau in CBD tissue (Homo sapiens, UniProt P10636); assay: In vitro competition (Ki) assay, CBD brain tissue homogenate; assay type: binding
T3 construct: autopsy-confirmed postmortem AD, PSP, and CBD human brain tissues; tissue UCSF Neurodegenerative Disease Brain Bank; host or cells: post-mortem human CBD brain homogenate

[4] = target: T4, PiB binding site on amyloid-beta (Homo sapiens, UniProt P05067); assay: Competition against [^3H]PiB in post-mortem human AD brain tissue; details: vs. [^3H]PiB, Table 7 (n = 4)
T4 construct: from tissue; host or cells: post-mortem human AD brain

[5] = target: T5, aggregated 4R-tau in AD brain (Homo sapiens, UniProt P10636); assay: Binding affinity (Kd) assay, AD brain homogenate; details: AD tissue; Table 7 (n = 4); read-out: KD (homologous binding assay)
T5 construct: aggregated 4R-tau in human brain tissue samples from AD, PSP, and CBD patients; from tissue; host or cells: homogenized cortex of human AD brain

[6] = target: T6, aggregated 4R-tau in PSP brain (Homo sapiens, UniProt P10636); assay: Binding affinity (Kd) assay, PSP brain homogenate; details: PSP tissue; Table 7 (n = 4); read-out: KD (homologous binding assay)
T6 construct: aggregated 4R-tau in human brain tissue samples from AD, PSP, and CBD patients; from tissue; host or cells: homogenized cortex of human PSP brain

[7] = target: T7, aggregated 4R-tau in CBD brain (Homo sapiens, UniProt P10636); assay: Binding affinity (Kd) assay, CBD brain homogenate; details: CBD tissue; Table 7 (n = 4); read-out: KD (homologous binding assay)
T7 construct: aggregated 4R-tau in human brain tissue samples from AD, PSP, and CBD patients; from tissue; host or cells: homogenized cortex of human CBD brain

[8] = target: T8, Pick's Disease brain tissue (Homo sapiens, UniProt P10636); assay: Homologous binding assay, Pick's Disease brain tissue; details: Table 7 (n = 4)
T8 construct: post-mortem human AD, PSP, CBD, and Pick's Disease brain tissue; from tissue; host or cells: post-mortem human Pick's Disease brain

P301L mouse brain tissue = target: T9, P301L mouse brain tissue (Homo sapiens, UniProt P10636, P618L); assay: Homologous binding assay, P301L mouse brain tissue; details: Table 7 (n = 4)
T9 construct: from tissue; host or cells: brain tissue of P301L mouse

[9] = Brain PET imaging studies in rhesus macaques (brain uptake and washout); assay type: in vivo; details: rhesus macaque PET
Experimental: Brain uptake and washout of [^8F]68 (FIG. 5) and [^8F]69 (FIG. 6) was evaluated by brain PET imaging studies in rhesus macaques. The 2-minute to 60-minute ratios of [^18F]68 were 1.2 (whole brain), 1.3 (cortex), and 2.0 (cerebellum). The 2-minute to 60-minute ratios of [^18F]69 were 3.0 (whole brain), 3.7 (cortex), and 3.8 (cerebellum).

[10] = vs [^3H]1, n = 1, Ki=IC50/2, read-out: Inhibition Constant (Ki) versus [^3H]1
[11] = vs [^3H]2, n = 1, Ki=IC50/2, read-out: Inhibition Constant (Ki) versus [^3H]2

Compound: Fc1ccc2cc(-c3cnc(N4CC[C@@H](F)C4)nc3)[nH]c2c1 [(R)-Compound 37, (R)-6-Fluoro-2-(2-(3-fluoropyrrolidin-1-yl)pyrimidin-5-yl)-1H-indole]
Ki [1, 10]: 16 nM | Ki [1, 11]: 17 nM | Ki [2, 10]: 14 nM | Ki [2, 11]: 23 nM | Ki [3, 10]: 15 nM | Ki [3, 11]: 20 nM

Compound: Fc1ccc2cc(-c3cnc(N4CCCCC4)nc3)[nH]c2c1 [Compound 15, 6-Fluoro-2-(2-(piperidin-1-yl)pyrimidin-5-yl)-1H-indole]
Ki [1, 10]: 3.5 nM | Ki [1, 11]: 7.7 nM | Ki [2, 10]: 6.2 nM | Ki [2, 11]: 9.2 nM | Ki [3, 10]: 6.3 nM | Ki [3, 11]: 12 nM

Compound: COC1CCN(c2ncc(-c3cc4ccc(F)cc4[nH]3)cn2)CC1 [Compound 36, 6-Fluoro-2-(2-(4-methoxypiperidin-1-yl)pyrimidin-5-yl)-1H-indole]
Ki [1, 10]: 5 nM | Ki [1, 11]: 9.5 nM | Ki [2, 11]: 10 nM | Ki [3, 10]: 8.2 nM | Ki [3, 11]: 14 nM

Compound: O=C1CCN(c2ncc(-c3cc4ccc(F)cc4[nH]3)cn2)CC1 [Compound 38, 1-(5-(6-Fluoro-1H-indol-2-yl)pyrimidin-2-yl)piperidin-4-one]
Ki [1, 10]: 12 nM | Ki [2, 10]: 13 nM | Ki [2, 11]: 14 nM | Ki [3, 10]: 17 nM | Ki [3, 11]: 15 nM

Compound: Fc1ccc2cc(-c3ccc(N4CCCCC4)nc3)[nH]c2c1 [Compound 39, 6-fluoro-2-(6-(piperidin-1-yl)pyridin-3-yl)-1H-indole]
Ki [1, 11]: 4.9 nM | Ki [2, 10]: 4.6 nM | Ki [2, 11]: 5.2 nM | Ki [3, 10]: 6.2 nM | Ki [3, 11]: 5.9 nM

Compound: Fc1ccc2cc(-c3ccc(N4CCOCC4)nc3)[nH]c2c1 [Compound 40, 4-(5-(6-Fluoro-1H-indol-2-yl)pyridin-2-yl)morpholine]
Ki [1, 10]: 9.5 nM | Ki [1, 11]: 13 nM | Ki [2, 10]: 7.9 nM | Ki [3, 10]: 11 nM | Ki [3, 11]: 12 nM

Ki [1, 10]: 9.2 nM | Ki [1, 11]: 6.5 nM | Ki [2, 10]: 10 nM | Ki [3, 10]: 13 nM | Ki [3, 11]: 11 nM | Ki [4]: 61 ± 3 nM
Compound: Fc1nc(N2CCOCC2)ccc1-c1cc2ccccc2[nH]1 [Compound 69, 4-(6-Fluoro-5-(1H-indol-2-yl)pyridin-2-yl)morpholine]

Compound: Fc1ccc2[nH]c(-c3cnc(N4CCOCC4)nc3)cc2c1 [Compound 72, 4-(5-(5-Fluoro-1H-indol-2-yl)pyrimidin-2-yl)morpholine]
Ki [1, 11]: 9.2 nM | Ki [2, 11]: 9.5 nM | Ki [3, 11]: 10 nM

Compound: Fc1ccc2[nH]c(-c3ccc(N4CCOCC4)nc3)cc2c1 [Compound 73, 4-(5-(5-fluoro-1H-indol-2-yl)pyridin-2-yl)morpholine]
Ki [1, 11]: 5 nM | Ki [2, 11]: 6.3 nM | Ki [3, 11]: 7.7 nM

Compound: Fc1ccc2cc(-c3ccc(N4CCCCC4)nc3F)[nH]c2c1 [Compound 75, 6-Fluoro-2-(2-fluoro-6-(piperidin-1-yl)pyridin-3-yl)-1H-indole]
Ki [1, 11]: 29 nM | Ki [2, 11]: 34 nM | Ki [3, 11]: 26 nM

Compound: Fc1ccc2cc(-c3cnc(N4CCOCC4)cn3)[nH]c2c1 [Compound 81, 4-(5-(6-Fluoro-1H-indol-2-yl)pyrazin-2-yl)morpholine]
Ki [1, 11]: 8 nM | Ki [2, 11]: 7.3 nM | Ki [3, 11]: 8.2 nM

Compound: Fc1ccc2cc(-c3cnc(N4CCCCC4)c(F)c3)[nH]c2c1 [Compound 83, 6-Fluoro-2-(5-fluoro-6-(piperidin-1-yl)pyridin-3-yl)-1H-indole]
Ki [1, 11]: 7.5 nM | Ki [2, 11]: 7.8 nM | Ki [3, 11]: 8.7 nM

Compound: Fc1ccc2cc(-c3cnc(N4CCOCC4)c(F)c3)[nH]c2c1 [Compound 84, 4-(3-Fluoro-5-(6-fluoro-1H-indol-2-yl)pyridin-2-yl)morpholine]
Ki [1, 11]: 24 nM | Ki [2, 11]: 20 nM | Ki [3, 11]: 18 nM

Compound: Fc1cc(N2CCOCC2)ncc1-c1cc2ccccc2[nH]1 [Compound 88, 4-(4-Fluoro-5-(1H-indol-2-yl)pyridin-2-yl)morpholine]
Ki [1, 11]: 13 nM | Ki [2, 11]: 15 nM | Ki [3, 11]: 12 nM

Compound: Fc1cc(-c2cc3ccccc3[nH]2)cnc1N1CCCCC1 [Compound 89, 2-(5-Fluoro-6-(piperidin-1-yl)pyridin-3-yl)-1H-indole]
Ki [1, 11]: 16 nM | Ki [2, 11]: 17 nM | Ki [3, 11]: 14 nM

Compound: Fc1cc(-c2cc3ccccc3[nH]2)cnc1N1CCOCC1 [Compound 90, 4-(3-Fluoro-5-(1H-indol-2-yl)pyridin-2-yl)morpholine]
Ki [1, 11]: 7.9 nM | Ki [2, 11]: 8.6 nM | Ki [3, 11]: 9.5 nM

Compound: Fc1cc(N2CCCCC2)cnc1-c1cc2ccccc2[nH]1 [Compound 92, 2-(3-Fluoro-5-(piperidin-1-yl)pyridin-2-yl)-1H-indole]
Ki [1, 11]: 15 nM | Ki [2, 11]: 20 nM | Ki [3, 11]: 16 nM

Compound: Fc1cc(N2CCOCC2)cnc1-c1cc2ccccc2[nH]1 [Compound 97, 4-(5-Fluoro-6-(1H-indol-2-yl)pyridin-3-yl)morpholine]
Ki [1, 11]: 21 nM | Ki [2, 11]: 25 nM | Ki [3, 11]: 22 nM

Compound: Fc1cc(-c2cc3ccccc3[nH]2)ncc1N1CCOCC1 [Compound 99, 4-(4-Fluoro-6-(1H-indol-2-yl)pyridin-3-yl)morpholine]
Ki [1, 11]: 50 nM | Ki [2, 11]: 44 nM | Ki [3, 11]: 49 nM

Compound: Fc1ccc2cc(-c3cc(F)c(N4CCOCC4)cn3)[nH]c2c1 [Compound 100, 4-(4-Fluoro-6-(6-fluoro-1H-indol-2-yl)pyridin-3-yl)morpholine]
Ki [1, 11]: 115 nM | Ki [2, 11]: 65 nM | Ki [3, 11]: 56 nM

Compound: FCCOCCOC1CCN(c2ncc(-c3cc4ccccc4[nH]3)cn2)CC1 [Compound 102, 2-(2-(4-(2-(2-Fluoroethoxy)ethoxy)piperidin-1-yl)pyrimidin-5-yl)-1H-indole]
Ki [1, 10]: 19 nM | Ki [1, 11]: 20 nM | Ki [2, 11]: 23 nM | Ki [3, 10]: 39 nM | Ki [3, 11]: 30 nM

Kd [5]: 1.5 ± 0.4 nM | Kd [6]: 2.3 ± 0.6 nM | Kd [7]: 2.5 ± 0.3 nM | Kd [8]: 3.3 ± 0.3 nM | Kd (P301L mouse brain tissue): 2.8 ± 0.7 nM
Compound: Fc1nc(N2CCOCC2)ccc1-c1cc2ccccc2[nH]1 [[^3H]69]

2-minute to 60-minute ratio, cerebellum ([9]; cerebellum): 3.8 | 2-minute to 60-minute ratio, cortex ([9]; cortex): 3.7 | 2-minute to 60-minute ratio, whole brain ([9]; whole brain): 3.0
Compound: [18F]c1nc(N2CCOCC2)ccc1-c1cc2ccccc2[nH]1 [[^18F]69, 4-(6-[^18F]Fluoro-5-(1H-indol-2-yl)pyridin-2-yl)morpholine]

Read-outs that look alike come from different tables or passages of the source. Each block holds one compound with its values, some of them ahead of it.
